Values quoted from earlier work as cited in patent US12370241B2, “Nasal powder formulation for treatment of hypoglycemia” (AMPHASTAR PHARMACEUTICALS, INC., priority 2015, dated 2025).

Details: water; cited from earlier work

Substance: γ (gamma)-cyclodextrin
- Aqueous solubility: freely soluble in water
